In PubChem BioAssay (EPA / NIEHS):
The entries are a selection whose mix differs from that of the whole data set. Results filed as inconclusive are left out. Active and inactive are the calls of the source. Rule for the calls, unless noted: active = hit-call score of the fitted dose curve at least 0.9, where 1 is the maximum; inactive = score below 0.9.

Columns and labels:
[1] = CCTE_Shafer_MEA_acute_spike_number: CCTE's Neural Acute Assay for Total Number of Spikes, Shafer Lab (AID 2284008)
Protocol: (§1) CCTE_Shafer_MEA_acute assay is conducted using Axion Biosystems 48 well microelectrode array (MEA) plates and Maestro recording system. Each well of the MEA plate contains a grid of 16 microelectrodes embedded in the culture surface. Electrically active cells, such as neurons, can be cultured over the electrodes, and electrical activity in these cells can be recorded extracellularly. The spontaneous firing of neurons is captured from each electrode on a microsecond timescale providing both temporally and spatially precise data. […] The CCTE_Shafer_MEA_acute assay uses primary cultures of rat cortical neurons. […] Data from the assay component CCTE_Shafer_MEA_acute_spike_number was analyzed into 1 assay endpoint. This assay endpoint, CCTE_Shafer_MEA_acute_spike_number, was analyzed in the negative analysis fitting direction relative to DMSO as the negative control and baseline of activity. […]
Spontaneous activity in the cortical cultures was recorded using an Axion Biosystems Maestro 768 channel amplifier and Axion Integrated Studios (AxIS) v1.8 (or later) software. […] Any electrodes with rms noise levels greater than 5 uV were grounded (e.g., no data were recorded). […] Baseline activity (40 min) was recorded before the addition of each compound. An additional 40 min of spontaneous activity was recorded in the presence of each compound. […]

[2] = CCTE_Shafer_MEA_acute_firing_rate_mean: CCTE's Neural Acute Assay for Mean Firing Rate, Shafer Lab (AID 2284009);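 note: analyzed for loss of signal so actives lower firing rate relative to DMSO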
In short: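 Read-out: well-mean spike rate (spikes/recording length/electrodes), % change from 40 min pre-dose baseline to 40 min with compound. Rat cortical cultures, DIV 13 or 15, 37 C; 0.03-40 uM; DMSO as negative control.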

[3] = CCTE_Harrill_HTTr_Viability_MCF7: CCTE's 6-hour Cell Viability Assessment for the High-Throughput Transcriptomics (HTTr) Platform, in MCF-7 cells cultured in DMEM + 10% fetal bovine serum, Harrill Lab (AID 2284010)
In short: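 Viability measured through PI dye exclusion by high-content imaging at 6 h post-dosing.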

[4] = CCTE_Harrill_HTTr_Apoptosis_MCF7: CCTE's 6-hour Apoptosis Assessment for the High-Throughput Transcriptomics (HTTr) Platform, in MCF-7 cells cultured in DMEM + 10% fetal bovine serum, Harrill Lab (AID 2284011)
In short: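 MCF-7 cells in DMEM + 10% fetal bovine serum were exposed to chemicals for 6 hours over an eight-point dilution series. Caspase-3/7 activation was imaged by high content imaging with CellEvent Caspase 3/7 Green; bidirectional fitting used DMSO as baseline.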

[5] = CCTE_Harrill_HTTr_CellCount_MCF7: CCTE's Cell Proliferation Assessment for the High-Throughput Transcriptomics (HTTr) Platform, Harrill Lab (AID 2284012; active = hit-call score of the fitted dose curve at least 0.9, where 1 is the maximum;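 note: cells exposed to compound for six hours; intended direction is loss of nuclei count meaning fewer cells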)
From the text: This is a cell-based assay that evaluates cell viability and cell growth using high content imaging to count the number of Hoechst-labeled nuclei that are present in an assay well in 384-well format.This is a cell-based assay that evaluates cell viability and cell growth in MCF-7 cells. This was part of a full screening experiment. High content imaging is used to count the number of Hoechst-labeled nuclei that are present in an assay well in 384-well format.The assay component endpoint CCTE_Harrill_HTTr_CellCount_MCF7 was analyzed with bidirectional fitting relation to DMSO as the negative control and baseline of activity. Using a type of viability reporter, loss-of-signal activity can be used to understand changes in cell count. To generalize the intended target to other relatable targets, this assay endpoint is annotated to cell cycle, where the subfamily is cell count.
Chemicals were tested in MCF7 cells in an eight point dilution series with a six hour exposure duration.

[6] = CCTE_Shafer_MEA_acute_burst_number: CCTE's Neural Acute Assay for Single-Electrode Bursts, Shafer Lab (AID 2284013)
In short: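 Rat cortical cultures, DIV 13/15; 40 min baseline, then 40 min with compound 0.03-40 uM, 37 C. Spikes: 300-5000 Hz band-pass, threshold 8x rms noise. Readout = % change in single-electrode bursts vs baseline, loss-of-signal fit.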

[7] = CCTE_Shafer_MEA_acute_burst_duration_mean: CCTE's Neural Acute Assay for Mean Burst Duration, Shafer Lab (AID 2284014);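 note: hits are decreases in mean burst duration relative to DMSO controls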
In short: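 Primary rat cortical neurons on 16-electrode MEA wells, treated on DIV 13 or 15 with compound (0.03-40 uM; ≥3 wells each). 40-min baseline and 40-min exposure recordings at 37 C; percent change in mean burst duration per well versus DMSO.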

[8] = CCTE_Shafer_MEA_acute_per_burst_spike_number_mean: CCTE's Neural Acute Assay for Average Number of Spikes Per Burst, Shafer Lab (AID 2284015);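 note: hits are decreases in mean spikes per burst versus baseline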
In short: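 Percent change in mean spikes per single-electrode burst is compared between a 40 min baseline and a 40 min recording with compound (0.03-40 uM). Cultures were rat cortical neurons on MEA plates at DIV 13 or 15, recorded at 37 C, with DMSO as the negative control.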

[9] = CCTE_Shafer_MEA_acute_interburst_interval_mean: CCTE's Neural Acute Assay for Mean Interburst Interval, Shafer Lab (AID 2284016);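 note: percent change of mean interburst interval versus each well's own pre-dose baseline; curves fitted for decrease in interburst interval relative to DMSO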
In short: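 Percent change in mean single-electrode interburst interval was calculated per well from 40 min recordings before and after compound (0.03-40 uM). Recordings were made at 37 C on rat cortical cultures at DIV 13 or 15, with spikes detected at 8x rms threshold.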

[10] = CCTE_Shafer_MEA_acute_burst_percentage_mean: CCTE's Neural Acute Assay for Percentage of Spikes in a Burst, Shafer Lab (AID 2284017)
Protocol: as §1, with “The average of the burst percentages across electrodes is calculated to report a well-level value. The recordings before and after chemical treatment are used to calculate a percent change in the mean burst percentage in each well.Data” for “Data”, “CCTE_Shafer_MEA_acute_burst_percentage_mean” for “CCTE_Shafer_MEA_acute_spike_number”, “CCTE_Shafer_MEA_acute_burst_percentage_mean,” for “CCTE_Shafer_MEA_acute_spike_number,”
Spontaneous activity in the cortical cultures was recorded using an Axion Biosystems Maestro 768 channel amplifier and Axion Integrated Studios (AxIS) v1.8 (or later) software. […] Baseline activity (40 min) was recorded before the addition of each compound. […]

Measured: outcome

O=[N+]([O-])c1ccccc1[N+](=O)[O-]
inactive: all assays above
